From patent US9096559B2, “4-carboxybenzylamino derivatives as histone deacetylase inhibitors” (Merck Sharp & Dohme Corp., priority 2007, dated 2015)

Amino acid sequences for entries named in this document (tags omitted).
UniProt Q13547, whole entry: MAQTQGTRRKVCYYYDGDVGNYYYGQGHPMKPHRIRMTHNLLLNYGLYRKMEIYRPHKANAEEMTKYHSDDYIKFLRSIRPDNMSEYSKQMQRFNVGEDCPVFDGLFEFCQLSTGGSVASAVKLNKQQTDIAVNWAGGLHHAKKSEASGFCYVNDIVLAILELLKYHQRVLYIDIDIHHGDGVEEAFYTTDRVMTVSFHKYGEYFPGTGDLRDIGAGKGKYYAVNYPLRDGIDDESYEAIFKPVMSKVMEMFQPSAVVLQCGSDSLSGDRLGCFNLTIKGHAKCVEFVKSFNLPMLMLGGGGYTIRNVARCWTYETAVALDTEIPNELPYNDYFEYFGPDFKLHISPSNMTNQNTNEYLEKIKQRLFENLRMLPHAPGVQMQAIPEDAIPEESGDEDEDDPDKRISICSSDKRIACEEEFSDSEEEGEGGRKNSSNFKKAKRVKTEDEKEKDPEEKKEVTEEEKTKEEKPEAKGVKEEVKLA

Molecular target: histone deacetylase, subtype 1 (HDAC1) (Homo sapiens (Human), UniProt Q13547)
Assay: HDAC1-Flag in vitro deacetylation assay
Type: biochemical
Conditions: IP = inflection point
Description: Novel compounds were tested for their ability to inhibit histone deacetylase, subtype 1 (HDAC1) using an in vitro deacetylation assay. The enzyme source for this assay was an epitope-tagged human HDAC1 complex immuno-purified from stably expressing mammalian cells. The substrate consisted of a commercial product containing an acetylated lysine side chain (BIOMOL Research Laboratories, Inc., Plymouth Meeting, Pa.). Upon deacetylation of the substrate by incubation with the purified HDAC1 complex, a fluorophore is produced that is directly proportional to the level of deacetylation.

Nc1ccc(-c2ccccc2)cc1NC(=O)c1ccc(CNC(=O)OCc2ccccc2)cc1 [Example 15, phenylmethyl[(4-{[(4-aminobiphenyl-3-yl)amino]carbonyl}phenyl)methyl]carbamate]
pIC50: 7.24

pIC50: −log10 of the molar value.
